Measurements: patent publication US11845808B2, “Peptide inhibitors of interleukin-23 receptor and their use to treat inflammatory diseases” (Janssen Biotech, Inc., priority 2020, dated 2023)

What was measured:
[1] = Stability in simulated intestinal fluid (SIF); assay type: in vitro ADME; details: 100 fold dilution of standard SIF concentration, 37° C., 20 μM
Procedure, shortened: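 Peptides at 20 μM final were incubated at 37 °C in SIF (potassium phosphate with pancreatin, pH 6.8), and reactions were quenched with acetonitrile/1% formic acid at time points from 0 min to 24 h. Percent remaining relative to time 0 was determined by LC-MS/MS against an internal standard, and half-life came from a first-order decay fit.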

Stability in rat plasma = assay type: in vitro ADME; details: SD rat plasma, 37° C., 20 μM
[2] = target: IL-23 induced IFNγ in natural killer (NK) cells (Homo sapiens, UniProt Q5VWK5); test: NK cell based assay (IL-23/IL-18 induced IFNγ); details: IL-23 at EC50 to EC75 and IL-18 10 ng/mL, IFNγ in supernatant after 20 to 24 hours
Text: Example 3: NK Cell Based Assay

IL-23R = target: T1, IL-23R (Homo sapiens, UniProt Q5VWK5); test: DB cells IL23R pSTAT3 cell assay (pStat3 HTRF); assay type: cell-based; details: IL-23R-expressing DB cells, IL-23 0.5 nM, 30 minutes
T1 construct: examines the levels of pSTAT3 in IL-23R-expressing DB cells when stimulated with IL-23; host or cells: DB cells
T1 sequence (Q5VWK5 24-629): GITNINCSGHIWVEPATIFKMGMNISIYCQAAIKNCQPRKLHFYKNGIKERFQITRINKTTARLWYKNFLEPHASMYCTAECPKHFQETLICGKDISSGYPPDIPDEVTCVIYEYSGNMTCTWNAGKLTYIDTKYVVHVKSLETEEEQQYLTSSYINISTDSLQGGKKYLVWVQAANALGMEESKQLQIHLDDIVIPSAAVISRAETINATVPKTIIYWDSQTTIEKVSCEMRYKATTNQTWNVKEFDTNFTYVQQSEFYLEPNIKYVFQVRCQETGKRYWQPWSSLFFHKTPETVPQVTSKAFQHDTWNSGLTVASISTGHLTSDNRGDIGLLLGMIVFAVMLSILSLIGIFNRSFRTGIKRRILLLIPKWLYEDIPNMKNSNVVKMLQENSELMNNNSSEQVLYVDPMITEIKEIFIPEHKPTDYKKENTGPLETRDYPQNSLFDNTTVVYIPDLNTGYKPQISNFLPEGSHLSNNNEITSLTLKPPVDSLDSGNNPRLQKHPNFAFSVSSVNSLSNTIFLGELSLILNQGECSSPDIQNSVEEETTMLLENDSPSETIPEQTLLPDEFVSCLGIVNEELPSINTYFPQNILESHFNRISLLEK
Text: Human ELISA indicates the IL23-IL23R competitive binding assay described below, Rat ELISA indicates the rat IL-23R competitive binding ELISA assay described below, and pStat3HTRF indicates the DB cells IL-23R pSTAT3 cell assay described below. The peptides depicted in Table E1A and Table E1B are cyclized via a disulfide bridge formed between two Pen residues in these peptides. The peptides depicted in Table E2 are cyclized via a thioether bond between the indicated amino acid residues. Table E2 provides an illustrative structure depicting thioether cyclization, which is indicated in the table by the term “cyclo,” with the cyclic region bracketed immediately following the term “cyclo.” For certain peptides, the residue Abu is present where indicated, whereas in other embodiments, e.g., those related to the non-cyclized form, the Abu may be referred to as a hSer(Cl) or homoSer residue.
DB Cells IL23R pSTAT3 Cell Assay
Where not shown or it is marked as “0”, data was not yet determined.

[3] = target: IL-23 stimulated phosphorylated STAT3 in PBMCs (Homo sapiens, UniProt Q5VWK5); test: PBMC pSTAT3 assay; assay type: cell-based; details: PBMCs from healthy donors, IL-23 5 ng/mL, 30 minutes
[4] = Stability in cynomolgus monkey fecal homogenate; assay type: in vitro ADME; details: 20% cynomolgus monkey fecal homogenate, 37° C., 20 μM
[5] = Stability in human fecal homogenate; assay type: in vitro ADME; details: 20% human fecal homogenate, 37° C., 20 μM
[6] = Stability in simulated gastric fluid (SGF); assay type: in vitro ADME; details: pepsin, pH=2, 37° C., 20 μM peptide
Experimental: Studies were carried out in simulated intestinal fluid (SIF) and simulated gastric fluid (SGF) to evaluate gastric stability of the peptide inhibitors of the present invention. In addition, studies were carried out to assess redox stability of the peptide inhibitors of the present invention.
SGF was prepared by adding 20 mg NaCl, 32 mg porcine pepsin (MP Biochemicals, catalog 02102599), and 700 HCl to 10 ml water (final pH=2). Aliquots of SGF (0.5 ml each) were pre-warmed at 37° C. To start the reaction, 1 μl of peptide stock solution (10 mM in DMSO) was added to 0.5 ml SGF and thoroughly mixed such that the final peptide concentration was 20 μM. The reactions were incubated at 37° C. with gentle shaking. At each time point (0, 15, 30, 60 min) 50 μl aliquots were removed and added to 200 ul acetonitrile containing 0.1% formic acid to quench the reaction. Samples are stored at 4° C. until the end of the experiment and centrifuged at 10,000 rpm for 5 minutes. Aliquots of the supernatant were removed, diluted 1:1 into distilled water containing internal standard, and analyzed by LCMS/MS. Percent remaining at each timepoint was calculated based on the peak area response ratio of test to compound to internal standard. Time 0 was set to 100%, and all later timepoints were calculated relative to time 0. Half-lives were calculated by fitting to a first-order exponential decay equation using GraphPad.

Substance	SIF t½ [1] [h]	t½: Rat Plasma EDTA (Stability in rat plasma) [h]	IC50 [2] [nM]	IC50 (IL-23R) [nM]	IC50 [3] [nM]	t½: Monkey Feces anaerobic [4] [h]	t½: Human Feces anaerobic [5] [h]	SGF t½ [6] [h]
Ac-[Pen]-N-T-[W(7-Me)]-[Lys(Ac)]-[Pen]-Phe[4-(2-aminoethoxy)]-[2-Nal]-[THP]-E-N-[3Pal]-[(D)NMeTyr]-NH2 [Peptide 121]	>24.0	>24.0	0.04	0.043	–	–	–	–
Ac-[Pen]-N-T-W-[Lys(Ac)]-[Pen]-Phe[4-(2-aminoethoxy)]-[2-Nal]-[Acvc]-E-N-[3Pal]-[Sarc]-NH2 [Peptide 159]	–	–	0.0416	0.17	0.017	–	–	–
Ac-[Pen]-S-T-[W(7-Me)]-[Lys(Ac)]-[Pen]-Phe[4-(2-aminoethoxy)]-[2-Nal]-[THP]-E-N-H-[Sarc]-NH2 [Peptide 55]	21.4	>24.0	1.14	0.203	–	19.5	13	–
Ac-[Pen]-N-T-[W(7-Me)]-[Lys(bAla)]-[Pen]-Phe[4-(2-aminoethoxy)]-[2-Nal]-[a-MeLys]-[Lys(Ac)]-N-H-[Sarc]-NH2 [Peptide 31]	>24.0	>24.0	–	0.42	–	17	5.4	–
Ac-[Pen]-S-T-[W(7-Me)]-[Lys(Ac)]-[Pen]-Phe[4-(2-aminoethoxy)]-[2-Nal]-[THP]-E-S-[3Pal]-[Sarc]-NH2 [Peptide 124]	18.5	>24.0	0.0874	0.023	–	–	–	–
Ac-[Pen]-S-T-[W(7-Me)]-[Lys(Ac)]-[Pen]-Phe[4-(2-aminoethoxy)]-[2-Nal]-[THP]-E-N-[3Pal]-[Sarc]-NH2 [Peptide 132]	>24.0	>24.0	0.0456	0.054	–	–	–	–
Ac-[Abu]-Q-T-[W(7-Ph)]-[Lys(Ac)]-[Cys]-Phe[4-(2-aminoethoxy)]-[2-Nal]-[a-MeLys]-[Lys(Ac)]-N-[(D)Lys]-[Sarc]-NH2 [Peptide 18]	15.1	>24.0	6.52	1.1	–	19.6	>24.0	–
Ac-[Pen]-N-T-[W(7-Me)]-[Lys(Ac)]-[Pen]-Phe[4-(2-aminoethoxy)]-[2-Nal]-[a-MeLys]-[Lys(Ac)]-N-[3Pal]-[(D)NMeTyr]-NH2 [Peptide 120]	>24.0	>24.0	0.0512	0.066	–	–	–	–
Ac-[Pen]-S-T-[W(7-Me)]-[Lys(Ac)]-[Pen]-Phe[4-(2-aminoethoxy)]-[2-Nal]-[THP]-E-S-H-[Sarc]-NH2 [Peptide 56]	24.1	>24.0	4.33	0.674	–	12.6	7.9	–
Ac-[Pen]-N-T-[W(7-Ph)]-[Lys(Ac)]-[Pen]-Phe[4-(2-aminoethoxy)]-[2-Nal]-[THP]-E-S-H-[Sarc]-NH2 [Peptide 59]	>24.0	>24.0	1.68	0.359	–	19.9	20.7	–
Ac-[Pen]-N-T-[W(7-Me)]-Q-[Pen]-Phe[4-(2-aminoethoxy)]-[2-Nal]-[THP]-E-N-[3Pal]-[Sarc]-NH2 [Peptide 108]	>24.0	>24.0	–	0.022	–	12.9	17.3	–
Ac-[Pen]-N-T-[W(7-Me)]-[Cit]-[Pen]-Phe[4-(2-aminoethoxy)]-[2-Nal]-[THP]-E-N-[3Pal]-[Sarc]-NH2 [Peptide 107]	20.9	>24.0	–	0.029	–	9	19.7	–
Ac-[Pen]-N-T-[W(7-Me)]-[Lys(Ac)]-[Pen]-Phe[4-(2-aminoethoxy)]-[2-Nal]-[THP]-E-S-[3Pal]-[Sarc]-NH2 [Peptide 125]	24.5	>24.0	0.1	0.04	–	–	–	–
Ac-[Abu]-Q-T-[W(7-Ph)]-Q-[Cys]-Phe[4-(2-aminoethoxy)]-[2-Nal]-[THP]-E-N-[3Pal]-[Sarc]-NH2 [Peptide 134]	>24.0	>24.0	–	–	–	–	–	>24.0
Ac-[Abu]-Q-T-[W(7-Me)]-[Lys(Ac)]-[Cys]-Phe[4-(2-aminoethoxy)]-[2-Nal]-[a-MeLys]-[Lys(Ac)]-N-[(D)Lys]-[Sarc]-NH2 [Peptide 17]	6.4	>24.0	2.63	0.791	–	11.1	24.5	–
Ac-[Pen]-N-T-[W(7-Me)]-[Lys(Ac)]-[Pen]-Phe[4-(2-aminoethoxy)]-[2-Nal]-[THP]-E-N-H-[(D)NMeTyr]-NH2 [Peptide 57]	>24.0	>24.0	1.68	0.26	–	>24.0	>24.0	–
Ac-[Abu]-Q-T-[W(7-Ph)]-Q-[Cys]-Phe[4-(2-aminoethoxy)]-[2-Nal]-[a-MeLys]-[Lys(Ac)]-N-[3Pal]-[Sarc]-NH2 [Peptide 135]	11.7	>24.0	–	–	–	–	–	>24.0
